Test results from patent US20260382567A1, “COMBINATION OF QUERCETIN AND PATHENOLIDE AS ANTI-INFLAMMATORY AGENTS FOR USE IN THE TREATMENT OF DERMATITIS” (published 2026).

Legend:
[1] = tested on: TNFa secretion by human THP-1 macrophages; assay: THP1 cytokine secretion assay (IFN-gamma/LPS-stimulated, PMA-differentiated THP-1 macrophages), secreted TNFa
[2] = tested on: MIP1-beta; assay: LPS-induced systemic inflammation mouse model, MIP1-beta level; conditions: at 4 h after LPS (1 mg/kg); i.p. 1 hour prior; Dexamethasone 5 mg/kg; Parthenolide+Quercetin 4 mg/kg+9 mg/kg; serum or plasma
[3] = tested on: TNFa; assay: LPS-induced systemic inflammation mouse model, TNFa level; conditions: at 4 h after LPS (1 mg/kg); i.p. 1 hour prior; Dexamethasone 5 mg/kg; Parthenolide+Quercetin 4 mg/kg+9 mg/kg; serum or plasma
[4] = tested on: CXCL1; assay: LPS-induced systemic inflammation mouse model, CXCL1 level; conditions: at 4 h after LPS (1 mg/kg); i.p. 1 hour prior; Dexamethasone 5 mg/kg; Parthenolide+Quercetin 4 mg/kg+9 mg/kg; serum or plasma

With `C=C1C(=O)O[C@H]2[C@H]1CC/C(C)=C/CC[C@@]1(C)O[C@@H]21` the “inhibition of TNFa secretion (in words)” value ([1]; Parthenolide alone (0-5 uM)) was “dose-dependent inhibition of TNFa secretion”.

In the case of `C[C@@H]1C[C@H]2[C@@H]3CCC4=CC(=O)C=C[C@]4(C)[C@@]3(F)[C@@H](O)C[C@]2(C)[C@@]1(O)C(=O)CO`, the MIP1-beta level [2] is reported as 29 % of the Vehicle in LPS-injected mice, the TNFa level [3] is reported as 12 % of the Vehicle in LPS-injected mice and the CXCL1 level [4] is reported as 57 % of the Vehicle in LPS-injected mice.

`O=c1c(O)c(-c2ccc(O)c(O)c2)oc2cc(O)cc(O)c12` was tested, and the “inhibition of TNFa secretion (in words)” value ([1]; Quercetin alone (0-10 uM)) was “dose-dependent inhibition of TNFa secretion”.
